## scFv variants of Ab-14 (heavy chain) against a SARS-CoV-2 spike peptide

Values reported by Li et al. 2023, doi:10.1038/s41467-023-39022-2 (FLAb copy).

Target: peptide PDVDLGDISGINAS, taken from heptad repeat 2 (HR2) of SARS-CoV-2 spike.

Ab-14 is the parent antibody, in scFv form: VH, then the linker GGGGSGGGGSGGGGS, then VL. The light chain is unchanged in all variants.
VH: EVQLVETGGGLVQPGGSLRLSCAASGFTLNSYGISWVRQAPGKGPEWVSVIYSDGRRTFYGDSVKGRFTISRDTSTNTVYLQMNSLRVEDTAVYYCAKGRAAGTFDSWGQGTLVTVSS
VL: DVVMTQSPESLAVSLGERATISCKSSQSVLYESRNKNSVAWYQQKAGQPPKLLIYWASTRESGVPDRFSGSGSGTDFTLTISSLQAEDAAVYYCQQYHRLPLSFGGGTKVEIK

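The starting antibody came from a phage panning campaign against this peptide. Designed CDR sequences, proposed from the first random library and measured here. Several design methods are mixed in this list. In AlphaSeq, yeast of one mating type display the scFv and yeast of the other type display the target. The frequency of each diploid, read from paired DNA barcodes, reflects how well the two displayed proteins bind. Each replicate has its own calibration line, from reference interactions of the BCL2 family. There are six technical replicates.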

Each variant's VH is given in full.
This list holds designs with at most six substitutions.
Kd is apparent (estimated from mating counts) and averaged on the log scale over replicates with a signal. Smaller is tighter.
"nd" marks a missing value. The strain was present, yet no cells mated with the target were sequenced in any replicate, which points to weak or no binding.
Of ten entries with the parent sequence, four were seen in most replicates (averages 2.2 nM to 240 nM), three in one and three in none, so single entries are noisy.
Nonspecific signal, from three strains lacking the peptide, appeared in 1% of pairings of all heavy chain designs, centred on 120 nM (5% of these signals below 7.0 nM); values are not corrected for it.
A sequence measured in both rounds can read differently, since the two assays cover different ranges.
The authors averaged sequences with at least three values out of six and counted those with two or fewer as poor binders.

- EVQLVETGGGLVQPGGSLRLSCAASGFHLNDYGISWVRQAPGKGPEWVSVIYADGRRTFYGDSVKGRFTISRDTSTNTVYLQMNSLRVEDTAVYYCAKGYAAGTSDLWGQGTLVTVSS: nd (0 of 6 replicates)
- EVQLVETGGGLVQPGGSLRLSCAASGFTLNSYGISWVRQAPGKGPEWVSVIYADGRRTFYADSVKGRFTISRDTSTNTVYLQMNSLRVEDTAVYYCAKGKAAGTFDSWGQGTLVTVSS: 480 pM (6 of 6 replicates)
- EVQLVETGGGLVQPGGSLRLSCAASGFNLNSYGISWVRQAPGKGPEWVSVIYSDGRRTFYGDSVKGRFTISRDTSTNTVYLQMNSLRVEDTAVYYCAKGRAAATFDVWGQGTLVTVSS: 150 nM (1 of 6 replicates)
- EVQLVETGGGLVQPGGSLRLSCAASGFTLNSYGISWVRQAPGKGPEWVSVIYSDGRRTFYGDDVKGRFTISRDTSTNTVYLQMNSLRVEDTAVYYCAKGRVAGTFDSWGQGTLVTVSS: 17 nM (6 of 6 replicates)
- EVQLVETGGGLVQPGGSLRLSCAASGFDLNSYGISWVRQAPGKGPEWVSVIYSDGRRTFYGDSVKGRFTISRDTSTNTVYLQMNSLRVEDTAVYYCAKGQAAGTFDSWGQGTLVTVSS: 6.6 nM (6 of 6 replicates)
- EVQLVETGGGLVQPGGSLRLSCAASGFTLNSYGISWVRQAPGKGPEWVSVIYSDGRRTFYGDSVKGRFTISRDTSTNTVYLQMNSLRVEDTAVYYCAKEQAAGTFDSWGQGTLVTVSS: 72 nM (4 of 6 replicates)
- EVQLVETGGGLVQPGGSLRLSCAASGFTLLDYGISWVRQAPGKGPEWVSVIYSDGRRTFYEDSVKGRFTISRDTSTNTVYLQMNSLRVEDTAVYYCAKGRAAGTFDSWGQGTLVTVSS: nd (0 of 6 replicates)
- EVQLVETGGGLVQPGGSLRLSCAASGFTLNEYGISWVRQAPGKGPEWVSVIYSDGRRTFYSDSVKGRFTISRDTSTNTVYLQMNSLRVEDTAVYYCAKGHAAGTFDTWGQGTLVTVSS: 1.0 nM (6 of 6 replicates)
- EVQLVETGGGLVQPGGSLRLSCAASGFTLNEYGISWVRQAPGKGPEWVSVIYSDGWRTFYGDSVKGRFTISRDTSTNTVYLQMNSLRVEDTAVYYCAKGRTAGTFDKWGQGTLVTVSS: 120 nM (6 of 6 replicates)
- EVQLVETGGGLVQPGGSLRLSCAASGFDLNSYGISWVRQAPGKGPEWVSVIYSDGRRTFYGDSVKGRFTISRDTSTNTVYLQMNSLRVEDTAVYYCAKGWEAGTFDSWGQGTLVTVSS: 8.7 nM (6 of 6 replicates)
- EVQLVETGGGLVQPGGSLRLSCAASGFTLESYGISWVRQAPGKGPEWVSVIYADGRRTFYGDSVKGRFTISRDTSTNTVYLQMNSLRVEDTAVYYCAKGRAAGTFDKWGQGTLVTVSS: 440 pM (5 of 6 replicates)
- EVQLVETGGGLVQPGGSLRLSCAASGFHLNSYGISWVRQAPGKGPEWVSVIYSDGRRTFYTDSVKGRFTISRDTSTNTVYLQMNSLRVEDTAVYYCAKGMGAGRDDSWGQGTLVTVSS: 99 nM (1 of 6 replicates)
- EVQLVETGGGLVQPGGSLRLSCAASGFNLNSYGISWVRQAPGKGPEWVSVIYSDGRRTFYGDSVKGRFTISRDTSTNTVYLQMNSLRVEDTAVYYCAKGRAAATFDTWGQGTLVTVSS: nd (0 of 6 replicates)
- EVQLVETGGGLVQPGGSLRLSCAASGIWLNSYGISWVRQAPGKGPEWVSVIYSDGRRTFYGDSVRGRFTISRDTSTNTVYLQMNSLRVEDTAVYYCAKGRAAGTFDSWGQGTLVTVSS: 130 nM (1 of 6 replicates)

The last 2 entries again:

VH,Kd,detected
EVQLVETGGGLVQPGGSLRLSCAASGFNLNSYGISWVRQAPGKGPEWVSVIYSDGRRTFYGDSVKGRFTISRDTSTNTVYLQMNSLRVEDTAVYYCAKGRAAATFDTWGQGTLVTVSS,nd,0 of 6
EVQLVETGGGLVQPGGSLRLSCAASGIWLNSYGISWVRQAPGKGPEWVSVIYSDGRRTFYGDSVRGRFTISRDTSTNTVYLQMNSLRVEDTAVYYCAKGRAAGTFDSWGQGTLVTVSS,130 nM,1 of 6